The subject of this data set is J2 HIE monolayers. Nature of the data set: Cytotoxicity by LDH assay in J2 HIE monolayers. Particulars: compound 10 μM, n = 1, LDH assay, J2 HIE monolayers infected with GII.4 HuNoV, 24 hpi, normalized to DMSO control.

Consider Maraviroc, for which the “(%) Cytotoxicity” value is listed as -1.98%.

(Values after publication PMC8565515, “Dasabuvir Inhibits Human Norovirus Infection in Human Intestinal Enteroids” (mSphere, 2021).)
